Results on one substance are retold here after ChEMBL document CHEMBL1147515, “Nickel(II) and cobalt(II) complexes of hydroxyl-substituted triazamacrocyclic ligand as potential antitumor agents” (2004).

Holding throughout (conditions): Homo sapiens
Assay [1] concerns HXO-RB44 cell line. The assay is described as follows: Percentage of growth inhibition of HXO-RB44 cells treated for 48 hr at 10E-6 M/L and incubated with 5 g/L MTT for 4 h. In kind it is functional.
The subject of assay [2] is Bel-7402. In words: Percentage of growth inhibition of BEL-7402 cells treated for 48 hr at 10E-4 M/L and incubated with 5 g/L MTT for 4 h. In kind it is functional.
For assay [3], the system named is HXO-RB44 cell line. The assay is described as follows: Percentage of growth inhibition of HXO-RB44 cells treated for 48 hr at 10E-4 M/L and incubated with 5 g/L MTT for 4 h. In kind it is functional.
In assay [4] the test system is HXO-RB44 cell line. The assay is described as follows: Percentage of growth inhibition of HXO-RB44 cells treated for 48 hr at 10E-5 M/L and incubated with 5 g/L MTT for 4 h. In kind it is functional.
Assay [5] relates to Bel-7402. In words: Percentage of growth inhibition of BEL-7402 cells treated for 48 hr at 10E-3 M/L and incubated with 5 g/L MTT for 4 h. Format: functional.
Assay [6] has as its system Bel-7402. The assay is described as follows: Percentage of growth inhibition of BEL-7402 cells treated for 48 hr at 10E-5 M/L and incubated with 5 g/L MTT for 4 h. In kind it is functional, cell-based.

Broadly, the inhibition is the change of the read-out against control, counted positive when it falls. NICKEL (II) ION: the inhibition in the assay with HXO-RB44 cell line [1] is 1%; with Bel-7402 [2], 3%; in the assay on HXO-RB44 cell line [3] it was 6%; in the assay with HXO-RB44 cell line [4], 2%; in the assay on Bel-7402 [5] it was 89%; in the assay with Bel-7402 [6] it was 1%.
